Results on 23 compounds are retold here after PubChem BioAssay AID1565 (Sanford-Burnham Center for Chemical Genomics, 2009).

By UniProt entry, the sequences of proteins in these tests, tags left out.
UniProt Q8TCT1, whole entry: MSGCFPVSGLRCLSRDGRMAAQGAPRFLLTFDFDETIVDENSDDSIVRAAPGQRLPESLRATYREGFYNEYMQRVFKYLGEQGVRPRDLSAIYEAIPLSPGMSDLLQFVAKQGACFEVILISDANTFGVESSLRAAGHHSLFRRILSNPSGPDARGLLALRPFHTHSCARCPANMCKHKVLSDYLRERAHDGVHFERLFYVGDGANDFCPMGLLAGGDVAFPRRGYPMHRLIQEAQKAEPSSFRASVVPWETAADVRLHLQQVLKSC

As a reminder, the inhibition is the drop in the measured response relative to a control, in per cent.

The list shows a part of the results, in another mix than the full data. Some results for these compounds are left out of this collection, so the calls shown say nothing about other tests. Active and inactive are the calls of the source. Cut-off read from the data, not from the text of the source: active = inhibition above about 60%; inactive = the rest.

The target in the assay is Phosphoethanolamine/phosphocholine phosphatase (Homo sapiens) (UniProt Q8TCT1). Put plainly: PubChem AID 1565. To be noted: recombinant PHOSPHO1, absorbance phosphatase assay; at 13.3 µM; hits give high values.
Take `COc1cc(C(=O)NCC2(N(C)C)CCCCC2)c([N+](=O)[O-])cc1OC`: the inhibition was inactive: 37.1%. On to `CN(C)C1(CNC(=O)c2ccc(Br)cc2)CCCCC1`, for which the inhibition is inactive: 38.1%. With `O=C(NCC1(N2CCCCC2)CCCCC1)c1cccc(Cl)c1` the figure was inactive: -4.1%; with `COc1cccc(C(=O)NCC2(N3CCCCC3)CCCCC2)c1`, inactive: 6.6%. For `COc1ccc(Cl)cc1C(=O)NCC1(N(C)C)CCCCC1`, the inhibition is inactive: 34%. As for `O=C(OC1CN2CCC1CC2)C(CO)(c1ccccc1)c1ccccc1` (stereo not drawn), the inhibition is inactive: -3.3%.

For `CN(C)c1cccc(C(=O)NCC2(N(C)C)CCCCC2)c1`, the inhibition was inactive: -1%. The figure for `COc1ccc(Br)c(C(=O)NCC2(N3CCCCC3)CCCCC2)c1` is inactive: 14.7%.

For `CN1[C@@H]2CC[C@H]1CC(OC(=O)C(O)(c1ccccc1)c1ccccc1)C2` (stereo partly drawn), the inhibition is inactive: 32.6%. With `O=C(NCC1(N2CCCCC2)CCCCC1)c1cc([N+](=O)[O-])ccc1Cl` the figure was inactive: -3.9%; with `Cc1ccc(C(=O)NCC2(N3CCCCC3)CCCCC2)cc1`, inactive: -16%. `CCN(CC)CC(C)C(C)OC(=O)C(O)(c1ccccc1)c1ccccc1` (stereo not drawn): the inhibition is inactive: 28.3%. The figure for `COc1cc(SC)ccc1C(=O)NCC1(N(C)C)CCCCC1` is inactive: 32.6%; for `CC(C)N1C(=O)CC2(CCN(CCOC(=O)C(O)(c3ccccc3)c3ccccc3)CC2)C1=O` it is inactive: 3.9%; for `Cc1ccccc1C(=O)NCC1(N2CCCCC2)CCCCC1` it is inactive: 42.1%. With `CN(C)C1CCCC1OC(=O)C(O)(c1ccccc1)c1ccccc1` (stereo not drawn) the figure was inactive: -0.6%.

Take `CN(C)c1ccc(C(=O)NCC2(N(C)C)CCCCC2)cc1`: the inhibition was inactive: 33%.

For the compound `COc1ccc(C(=O)NCC2(N(C)C)CCCCC2)cc1`, the inhibition was inactive: 6.9%. The figure for `Cc1cc(C(=O)NCC2(N3CCCCC3)CCCCC2)ccc1[N+](=O)[O-]` is inactive: 14.6%; for `CCN1CCCC(OC(=O)C2(O)c3ccccc3C=Cc3ccccc32)C1` (stereo not drawn) it is inactive: 9.3%; for `O=C(NCC1(N2CCCCC2)CCCCC1)c1cccc(Br)c1` it is inactive: 23.2%.

As for `C=CCN1CCN(CCOC(=O)C(O)(c2ccccc2)c2ccccc2)CC1`, the inhibition is inactive: 44.8%. The figure for `O=C(NCC1(N2CCCCC2)CCCCC1)c1cc(F)c(F)cc1Cl` is inactive: 15.1%.
